Reference: patent US7732568B2, “Methods for preventing and treating Alzheimer's disease” (AFFIRIS Forschungs-und Entwicklungs GmbH, priority 2003, dated 2010)

System: biotinylated monoclonal antibody specific for DAEFRH (natural N-terminal Aβ42 sequence)
Assay: Inhibition assay for additional mimotopes (competition ELISA), Example 4 (FIGS. 4 and 5)
Format: binding, mice
Procedure: FIGS. 4 and 5 describe the results of inhibition assays performed with mimotope peptides included in and obtained from the 5 libraries (as described). The mimotope peptides compete with the original epitope for recognition by the monoclonal antibody. Original epitope and mimotope peptides contain an additional C at the C-terminus (position 7) for coupling to a protein carrier (if desired).
After blocking with PBS/BSA 1% (200 μl/well, 12 h, 4° C.), the plates are washed 3× times with PBS/Tween. Then, biotinylated monoclonal antibody (1:2000, 50 μl/well) and peptides (50 μl/well) at different concentrations are added for 20 min. at 37° C. The plates are washed 3× times with PBS/Tween and are incubated with horseradish peroxidase (HRP)-labeled streptavidin (100 μl/well, 30 min, RT). The plates are washed 5× times with PBS/Tween and are incubated with ABTS H2O2 (0.1% w/v, 10 to 45 min) and the reaction is stopped with citric acid followed by photometric evaluation (wavelength 405 nm).

What does the source list for `CC(C)C[C@H](NC(=O)[C@H](CCC(=O)O)NC(=O)[C@H](CCCCN)NC(=O)[C@@H](N)CC(=O)O)C(=O)N[C@@H](CCCNC(=N)N)C(=O)N[C@@H](CS)C(=O)O` [Peptide 1238, DKELR]?
inhibition of binding of the monoclonal antibody to the original epitope (in words) (FIGS. 4 and 5): block epitope recognition; Inhibitory capacity of mimotopes (Table 2) (summary grade: strong, intermediate, weak, none): strong
